This note sets out measurements from ChEMBL document CHEMBL3108745, “Synthesis and structure-activity relationship of 3-hydroxypyridine-2-thione-based histone deacetylase inhibitors” (J Med Chem, 2013).

For this experiment, the species on record is Homo sapiens. Description: Selectivity ratio of IC50 for HDAC8 catalytic domain (unknown origin) to IC50 for HDAC6 (unknown origin).

Turning to `N#Cc1cccc(-c2cn(CCCCCn3cccc(O)c3=S)nn2)c1`, the Ratio IC50 worked out at 8.
